# Legend:
# [1] = Selectivity ratio of IC50 for rabbit muscle L-lactate dehydrogenase to IC50 for recombinant His6-tagged CtBP2 (31 to 384 residues) (unknown origin) dehydrogenase activity
# [2] = target: C-terminal-binding protein 2 (Homo sapiens, UniProt P56545); test: Inhibition of CtBP2 (unknown origin) transfected in human HCT116 p53-/- cells assessed as increase in Bik transcription at 1 mM by dual luciferase reporter gene assay relative to control; assay type: cell-based; conditions: HCT-116
compound,measurement,setting,value
O=C(O)/C(Cc1cccc(Cl)c1)=N\O,Ratio IC50,[1],> 170
same,fold change (FC),[2],1.41

# Reference: ChEMBL document CHEMBL3797021, “Design, synthesis, and biological evaluation of substrate-competitive inhibitors of C-terminal Binding Protein (CtBP)” (Bioorg Med Chem, 2016)
